These results are taken from patent US20240174727A1, “LONG-ACTING NATRIURETIC PEPTIDES AND USES THEREOF” (Eli Lilly and Company, priority 2022, published 2024).

For test [1], the target named is T1, human NPRA (Homo sapiens, UniProt P16066).
T1 construct: Full-Length cDNA Cloning and Generation of Cell Lines Overexpressing Natriuretic Peptide Receptors (NPRs); expressed in transfected cells; host or cells: Jump-in T-Rex HEK293 cells, pJTI R4 CMV-TO MCS pA vector, tetracycline induction
T1 sequence (P16066 33-1061): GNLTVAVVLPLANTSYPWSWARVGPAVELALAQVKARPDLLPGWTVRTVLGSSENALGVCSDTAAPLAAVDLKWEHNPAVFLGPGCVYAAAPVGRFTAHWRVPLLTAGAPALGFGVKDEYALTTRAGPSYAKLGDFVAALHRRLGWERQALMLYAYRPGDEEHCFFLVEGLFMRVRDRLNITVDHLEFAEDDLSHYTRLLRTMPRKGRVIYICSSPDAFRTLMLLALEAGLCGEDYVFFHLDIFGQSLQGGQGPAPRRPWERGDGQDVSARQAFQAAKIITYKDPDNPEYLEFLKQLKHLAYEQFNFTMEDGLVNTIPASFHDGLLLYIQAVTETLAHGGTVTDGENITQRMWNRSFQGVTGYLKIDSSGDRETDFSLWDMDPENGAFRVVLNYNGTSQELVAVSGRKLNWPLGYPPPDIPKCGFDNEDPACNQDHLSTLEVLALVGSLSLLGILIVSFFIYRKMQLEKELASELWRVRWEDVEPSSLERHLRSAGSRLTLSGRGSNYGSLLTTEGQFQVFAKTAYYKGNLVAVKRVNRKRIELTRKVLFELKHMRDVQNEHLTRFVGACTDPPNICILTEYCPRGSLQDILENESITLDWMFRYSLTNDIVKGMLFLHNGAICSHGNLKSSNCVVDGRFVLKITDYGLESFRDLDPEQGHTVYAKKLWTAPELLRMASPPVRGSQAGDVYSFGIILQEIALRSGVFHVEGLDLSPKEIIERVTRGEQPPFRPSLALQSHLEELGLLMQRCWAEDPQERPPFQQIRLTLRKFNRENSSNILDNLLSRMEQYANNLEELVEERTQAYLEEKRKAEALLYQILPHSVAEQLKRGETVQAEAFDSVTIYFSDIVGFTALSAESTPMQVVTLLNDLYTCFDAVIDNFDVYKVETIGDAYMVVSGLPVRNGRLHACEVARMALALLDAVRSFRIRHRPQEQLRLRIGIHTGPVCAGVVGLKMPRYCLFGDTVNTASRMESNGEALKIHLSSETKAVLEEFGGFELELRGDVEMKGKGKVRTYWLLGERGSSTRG
Description: Human NPRA cGMP activity assay (HTRF) in HEK293 cells overexpressing NPRA. It is filed as cell-based. The conditions noted are these: cGMP Assay (EC50, pM) w/Casein hNPRA, assay buffer with 0.1% casein. The procedure, abridged: (§1)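 cGMP measured by HTRF and scaled between buffer (minimum) and 100 nM amidated rat ANP (maximum). Polypeptides in 10-fold steps from 10 μM to 1 pM, 0.5% DMSO, 0.5 mM IBMX, 40 min at room temperature, on induced NPRA-overexpressing HEK293 cells.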
For orientation: TR-FRET usually uses a lanthanide donor and a delayed reading to cut background.

Test [2] has as its target T2, rat NPRA (Rattus norvegicus, UniProt P18910).
T2 construct: Full-Length cDNA Cloning and Generation of Cell Lines Overexpressing Natriuretic Peptide Receptors (NPRs); expressed in transfected cells; host or cells: Jump-in T-Rex HEK293 cells, pJTI R4 CMV-TO MCS pA vector, tetracycline induction
T2 sequence (P18910 29-1057): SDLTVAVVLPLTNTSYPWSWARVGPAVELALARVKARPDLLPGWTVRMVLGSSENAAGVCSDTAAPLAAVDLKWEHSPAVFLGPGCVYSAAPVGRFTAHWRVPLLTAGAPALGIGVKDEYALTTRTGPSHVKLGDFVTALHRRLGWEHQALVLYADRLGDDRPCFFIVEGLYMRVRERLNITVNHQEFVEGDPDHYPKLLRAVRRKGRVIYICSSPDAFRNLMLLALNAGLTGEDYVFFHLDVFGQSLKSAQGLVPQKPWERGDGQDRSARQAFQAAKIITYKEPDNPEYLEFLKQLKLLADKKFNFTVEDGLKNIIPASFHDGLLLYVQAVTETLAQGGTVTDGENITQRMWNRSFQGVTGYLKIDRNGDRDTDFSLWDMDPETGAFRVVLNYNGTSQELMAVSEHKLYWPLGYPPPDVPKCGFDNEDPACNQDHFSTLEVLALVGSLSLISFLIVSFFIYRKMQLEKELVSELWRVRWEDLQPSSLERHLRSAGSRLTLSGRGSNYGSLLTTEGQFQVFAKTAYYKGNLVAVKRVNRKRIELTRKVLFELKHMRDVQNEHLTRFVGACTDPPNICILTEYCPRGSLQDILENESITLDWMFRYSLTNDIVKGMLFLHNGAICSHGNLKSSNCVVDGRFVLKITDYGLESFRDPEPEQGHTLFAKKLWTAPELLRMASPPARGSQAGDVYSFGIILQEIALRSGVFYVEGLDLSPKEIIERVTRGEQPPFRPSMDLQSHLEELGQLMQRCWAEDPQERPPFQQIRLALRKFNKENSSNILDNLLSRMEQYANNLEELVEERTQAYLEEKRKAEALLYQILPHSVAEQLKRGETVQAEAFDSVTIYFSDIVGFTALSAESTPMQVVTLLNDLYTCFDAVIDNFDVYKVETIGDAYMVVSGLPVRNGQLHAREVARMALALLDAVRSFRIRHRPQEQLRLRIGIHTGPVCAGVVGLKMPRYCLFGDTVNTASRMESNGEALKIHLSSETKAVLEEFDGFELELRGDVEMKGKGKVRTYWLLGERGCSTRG
As to the kind of experiment: Rat NPRA cGMP activity assay (HTRF) in HEK293 cells overexpressing NPRA. The settings on record: cGMP Assay (EC50, pM) w/Casein rNPRA, assay buffer with 0.1% casein. The class given is cell-based. The procedure, abridged: as §1

Regarding `CC[C@H](C)[C@@H]1NC(=O)[C@H](CCCNC(=N)N)NC(=O)[C@H](CC(=O)O)NC(=O)[C@H]([C@@H](C)CC)NC(=O)[C@H](CCCNC(=N)N)NC(=O)[C@H](CCCCN)NC(=O)CNC(=O)[C@H](Cc2ccccc2)NC(=O)[C@@H](NC(=O)[C@H](CO)NC(=O)[C@H](CO)NC(=O)[C@H](CCCNC(=N)N)NC(=O)CCNC(=O)[C@H](CCCCN)NC(=O)[C@H](CCC(=O)O)NC(=O)COCCOCCNC(=O)COCCOCCNC(=O)COCCOCCNC(=O)COCCOCCNC(=O)COCCOCCNC(=O)COCCOCCNC(=O)COCCOCCNC(=O)COCCOCCNC(=O)CNC(=O)[C@H](CCCCN)NC(=O)[C@H](CCC(=O)O)NC(=O)[C@H](CCCCN)NC(=O)[C@H](CCC(=O)O)NC(=O)[C@H](CCCCN)NC(=O)[C@H](CCC(=O)O)NC(=O)CC[C@H](NC(=O)CCCCCCCCCCCCCCCCCCC(=O)O)C(=O)O)CSCSC[C@@H](C(=O)N2CCC[C@H]2C(=O)N[C@@H](CO)C(=O)N[C@@H](Cc2ccccc2)C(=O)N[C@@H](CCCNC(=N)N)C(=O)N[C@@H](Cc2c[nH]cn2)C(=O)NCC(=O)N[C@@H](CO)C(=O)N2CCC[C@H]2C(=O)N[C@@H](CO)C(=O)N[C@@H](CO)C(=O)NCC(=O)N[C@@H](C)C(=O)N2CCC[C@H]2C(=O)N2CCC[C@H]2C(=O)N2CCC[C@H]2C(=O)N[C@@H](CO)C(N)=O)NC(=O)CNC(=O)[C@H](CC(C)C)NC(=O)CNC(=O)[C@H](CO)NC(=O)[C@H](Cc2ccc(O)cc2)NC(=O)[C@H](Cc2c[nH]cn2)NC(=O)CNC1=O` [Example 108], the EC50 in test [1] came out at 497 pM; in test [2] it was 11200 pM.
For `CC[C@H](C)[C@@H]1NC(=O)[C@H](CCCNC(=N)N)NC(=O)[C@H](CC(=O)O)NC(=O)[C@H]([C@@H](C)CC)NC(=O)[C@H](CCCNC(=N)N)NC(=O)CNC(=O)CNC(=O)[C@H](Cc2ccccc2)NC(=O)[C@@H](NC(=O)[C@H](CO)NC(=O)[C@H](CO)NC(=O)[C@H](CCCNC(=N)N)NC(=O)CCNC(=O)[C@H](CCCCN)NC(=O)[C@H](CCC(=O)O)NC(=O)COCCOCCNC(=O)COCCOCCNC(=O)COCCOCCNC(=O)COCCOCCNC(=O)COCCOCCNC(=O)COCCOCCNC(=O)CNC(=O)[C@H](CCCCN)NC(=O)[C@H](CCC(=O)O)NC(=O)[C@H](CCCCN)NC(=O)[C@H](CCC(=O)O)NC(=O)[C@H](CCCCN)NC(=O)[C@H](CCC(=O)O)NC(=O)CC[C@H](NC(=O)CCCCCCCCCCCCCCCCCCC(=O)O)C(=O)O)CSCSC[C@@H](C(=O)N2CCC[C@H]2C(=O)N[C@@H](CO)C(=O)N[C@@H](Cc2ccccc2)C(=O)N[C@@H](CCCNC(=N)N)C(=O)N[C@@H](Cc2c[nH]cn2)C(=O)NCC(=O)N[C@@H](CO)C(=O)N2CCC[C@H]2C(=O)N[C@@H](CO)C(=O)N[C@@H](CO)C(=O)NCC(=O)N[C@@H](C)C(=O)N2CCC[C@H]2C(=O)N2CCC[C@H]2C(=O)N2CCC[C@H]2C(=O)N[C@@H](CO)C(N)=O)NC(=O)CNC(=O)[C@H](CC(C)C)NC(=O)CNC(=O)[C@H](CO)NC(=O)[C@H](Cc2ccc(O)cc2)NC(=O)[C@H](Cc2c[nH]cn2)NC(=O)CNC1=O` [Example 98] the same measures were 1840 pM and 17900 pM.

As a reminder, the EC50 is the concentration that produces a half-maximal response.
